This is an account of results in patent US8242166B2, “C(10) ethyl ester and C(10) cyclopropyl ester substituted taxanes” (Florida State University Research Foundation, Inc., priority 2008, dated 2012).

Series [1] has as its system MSTO-211H. The series can be described thus: MTT cytotoxicity (IC50), MSTO-211H. Format: cell-based. Particulars: Homo sapiens. As to the method:
Compound 17932 was tested in four of these cell lines, while the remaining compounds were tested in all of these cell lines. All cell lines were maintained in RPMI-1640 tissue culture medium (TCM, supplemented with antibiotics and 10% fetal bovine serum) and cultured at 37° C. in humidified air containing 5% CO2. To assess the antiproliferative effects of the test compounds, 172 μL of tumor cell suspension (1.45×10^4 cells/ml) were added to each well of a 96-well plate and incubated for 24 h at 37° C. in 5% CO2 in air to allow cells to adhere. Seven 2-fold drug dilutions in TCM/DMSO were performed in triplicate in separate 96-well plates and 28 μL was transferred to the wells containing tumor cells (200 μL final volume/0.1% DMSO). Plates were incubated for 72 h and cell viability was determined by adding 50 μL of warm TCM containing 5 mg/mL MTT (3-[4,5-dimethylthiazol-2-yl]-2,5-diphenyltetrazolium bromide) to each well and incubating for 1 h at 37° C. Plates were processed and the absorbances of the resulting solutions were measured by a plate reader at 570 nm. […] (GraphPad Prism version 4.00 for Windows). Studies were conducted by Taxolog, Inc., Tallahassee, Fla.

Series [2] has as its system human MSTO-211H mesothelioma xenograft. Format: in vivo. The note with it: 30 mg/kg IV Q4D × 4.
The subject of series [3] is Sprague-Dawley rats. The note with it: rat, in vivo.
Series [4] relates to human MSTO-211H mesothelioma xenograft. The series can be described thus: MSTO-211H xenograft study 101 (Example 30). The note with it: for activity: 18926 20 mg/kg, 18365 25 mg/kg i.v. q4d×4, study ongoing.
The test system is the same in series [5]. The series can be described thus: MSTO-211H xenograft study 004 (Example 28).
Series [6] has the same test system. Nature of the series: MSTO-211H xenograft study 008 (Example 29).
The mark [7] stands for this setting: MTT, 72 h, read-out: IN Vitro IC50 (nm) MSTO.
Where [8] appears, read: Resistance MRP2/BCRP1, read-out: MSTO Mesothelioma (Table 4, quantity not named; IC50 values as Table 2).

Like-named read-outs stand apart in the source and are kept apart here.

On to `CC(=O)O[C@@]12CO[C@@H]1C[C@H](O)[C@@]1(C)C(=O)[C@H](OC(=O)C3CC3)C3=C(C)[C@@H](OC(=O)[C@H](O)[C@@H](NC(=O)OC4CCC4)c4cccs4)C[C@@](O)([C@@H](OC(=O)c4ccccc4)C12)C3(C)C` (stereo partly drawn) [Compound 18365], for which the IC50 in series [1] (setting [7]) was 0.7 nM. Moreover, in series [1] (setting [8]), the IC50 was 0.7 nM. Also, in series [2], the “activity” value is on record as “very active in this study with tumor regressions”. Besides, in series [3], the “Day 18 ALT, points toward toxicity score” value is on record as 20 (key: 0: ALT elevation ≧2 × cont; ALT elevation ≧1.5 × cont; 10: ALT elevation ≧1.25 × cont; 20: ALT elevation <1.25 × cont); the “Day 18 AST, points toward toxicity score” value is given as 20 (key: 0: AST elevation ≧2 × cont.; AST elevation ≧1.5 × cont; 10: AST elevation ≧1.25 × cont; 20: AST elevation <1.25 × cont); the “Day 18 BUN, points toward toxicity score” value is on record as 20 (key: 0: BUN elevation ≧2 × cont; BUN elevation ≧1.5 × cont; 10: BUN elevation ≧1.25 × cont; 20: BUN elevation <1.25 × cont); the “Day 18 PLT, points toward toxicity score” value is on record as 20 (key: 0: Platelets decrease ≧75%; Platelets decrease ≧50%; 10: Platelets decrease ≧25%; 20: Platelets decrease <25%). In addition, in series [3], the “Day 22 BW, points toward toxicity score” value is reported as 20 (key: Body Weight Loss ≧20%; Body Weight Loss ≧15%; Body Weight Loss ≧10%; 20: Body Weight Loss <10%); the “Day 24 BW (recovery), points toward toxicity score” value (“Day 24 BW (recovery)” for short) is 0; the “Day 24 PLT (recovery), points toward toxicity score” value was determined as 0; the “Day 24 WBC (recovery), points toward toxicity score” value is 0. In addition, in series [3], the “Dia B/M, points toward toxicity score” value was determined as 5; the “Dia L/W, points toward toxicity score” value was 5; the “Neuro Tox, points toward toxicity score” value is −10 (key: Neurotoxicity N (0); −10: Neurotoxicity Y (1-4)); the “Score AVE” value was determined as 8.1. In series [4] (25 mg/kg i.v. q4d×4, five mice), this compound yielded a TR of 1. The “activity” value in series [4] was “significant regression”.

Consider `CCC(=O)O[C@H]1C(=O)[C@@]2(C)C([C@H](OC(=O)c3ccccc3)[C@]3(O)C[C@H](OC(=O)[C@H](O)[C@@H](NC(=O)OC4CCCC4)c4cccs4)C(C)=C1C3(C)C)[C@]1(OC(C)=O)CO[C@@H]1C[C@@H]2O` (stereo partly drawn) [Compound 18926], for which, in series [1] (setting [7]), the IC50 was found to be 0.4 nM. Besides, the IC50 in series [1] (setting [8]) was found to be 0.4 nM. Also, in series [3], the “Day 18 ALT, points toward toxicity score” value was 20 (key: 0: ALT elevation ≧2 × cont; ALT elevation ≧1.5 × cont; 10: ALT elevation ≧1.25 × cont; 20: ALT elevation <1.25 × cont); the “Day 18 BUN, points toward toxicity score” value is reported as 20 (key: 0: BUN elevation ≧2 × cont; BUN elevation ≧1.5 × cont; 10: BUN elevation ≧1.25 × cont; 20: BUN elevation <1.25 × cont); the “Day 18 PLT, points toward toxicity score” value is on record as 20 (key: 0: Platelets decrease ≧75%; Platelets decrease ≧50%; 10: Platelets decrease ≧25%; 20: Platelets decrease <25%); the “Day 24 BW (recovery)” value is 0. Further, in series [3], the “Dia B/M, points toward toxicity score” value was determined as 5 and the “Neuro Tox, points toward toxicity score” value was −10 (key: Neurotoxicity N (0); −10: Neurotoxicity Y (1-4)). For the same compound, in series [5] (25 mg/kg i.v. q4d×4), the “tumor nadir size (mean)” value came to 32 mg and the “tumor regression over the initial tumor weight of 222 mg” value amounted to 85%. In addition, the “activity” value in series [4] was “significant regression”.

Consider `CCC(=O)O[C@H]1C(=O)[C@@]2(C)C([C@H](OC(=O)c3ccccc3)[C@]3(O)C[C@H](OC(=O)[C@H](O)[C@@H](NC(=O)OC4CCC4)c4cccs4)C(C)=C1C3(C)C)[C@]1(OC(C)=O)CO[C@@H]1C[C@@H]2O` (stereo partly drawn) [Compound 19244], for which the IC50 in series [1] (setting [7]) came to 0.6 nM. Moreover, the IC50 in series [1] (setting [8]) was determined as 0.6 nM. In series [3], the “Day 18 PLT, points toward toxicity score” value is reported as 20 (key: 0: Platelets decrease ≧75%; Platelets decrease ≧50%; 10: Platelets decrease ≧25%; 20: Platelets decrease <25%); the “Day 24 BW (recovery)” value was 0; the “Day 24 PLT (recovery), points toward toxicity score” value turned out to be 0; the “Dia B/M, points toward toxicity score” value worked out at 5. In addition, in series [3], the “Dia L/W, points toward toxicity score” value worked out at 5; the “Neuro Tox, points toward toxicity score” value is −10 (key: Neurotoxicity N (0); −10: Neurotoxicity Y (1-4)); the “Score AVE” value is on record as 6.3. Also, in series [6] (30 mg/kg i.v. q4d×4), the “tumor nadir size (mean)” value came to 51 mg and the “tumor regression over the initial tumor weight of 220 mg” value is reported as 77%.

For the compound `CC(=O)O[C@@]12CO[C@@H]1C[C@H](O)[C@@]1(C)C(=O)[C@H](O)C3=C(C)[C@@H](OC(=O)[C@H](O)[C@@H](NC(=O)OC(C)(C)C)c4ccccc4)C[C@@](O)([C@@H](OC(=O)c4ccccc4)[C@H]21)C3(C)C` [Docetaxel, docetaxel, reference compound], the IC50 in series [1] (setting [7]) and in series [1] (setting [8]) was 4 nM each time. Besides, the maximum weight loss in series [5] (25 mg/kg qwk×3) came to 31%; in series [6] (25 mg/kg qwk×3), 24%. Besides, the “regressions” value in series [5] (25 mg/kg qwk×3) and in series [6] (25 mg/kg qwk×3) was “did not produce any regressions” throughout.
